In the assay the target is T1, Bax (Homo sapiens, UniProt Q07812).
T1 construct: expressed in transfected cells; host or cells: HEK293T
As to the kind of experiment: Co-immunoprecipitation of Flag-tagged Ku70 constructs and Bax. The format is binding. The note with it: HEK293T cells, Flag-tagged constructs, 50 uM z-VAD-fmk, Chaps-based buffer. The method, then: FIG. 4. Interaction of Ku70 and Bax. FIGS. 4A and B: Co-immunoprecipitation of endogenous Ku70 and Bax. HEK293T cells were lysed in the hypotonic buffer without detergent. Immunoprecipitation was also performed in detergent free buffer as described in Experimental Procedure. Immunoprecipitation was performed with (FIG. 4A) anti-Bax rabbit polyclonal antibody or (FIG. 4B) anti-Ku70 mouse monoclonal antibody as described in Experimental Procedure. Pre-immune rabbit serum (NRS) and mouse IgG were used as negative controls. Western blot analyses of pre-immunoprecipitation (Input) and immunoprecipitated samples (IP) were performed by anti-Ku70 monoclonal antibody or anti-Bax polyclonal antibody. (FIG. 4C) Co-immunoprecipitation of GFP-Bax and Ku70. HEK293T cells (10^6 cells) were transfected with 1.0 μg of PEGFP (GFP), pEGFP-Baxwt (GFP-Baxwt), pEGFP-Bax-ΔN (GFP-BaxΔN), pEGFP-Bax-Δα9 (GFP-BaxΔα9) or pEGFP-Bax-Δα2 (GFP-BaxΔα2) in the presence of 50 μM z-VAD-fmk. One day following transfection, cells were collected and co-immunoprecipitation experiments of GFP-Bax and endogenous Ku70 were performed as described in Experimental Procedure. Anti-GFP polyclonal antibody was used for immunoprecipitation and detection of GFP-fused proteins, and anti-Ku70 monoclonal antibody for the detection of Ku70. (FIG. 4D) Co-immunoprecipitation of Flag-tagged-Ku70 and endogenous Bax. […]

Protein sequences, listed by entry. Tags and fused reporters are not part of them.
UniProt Q07812, whole entry: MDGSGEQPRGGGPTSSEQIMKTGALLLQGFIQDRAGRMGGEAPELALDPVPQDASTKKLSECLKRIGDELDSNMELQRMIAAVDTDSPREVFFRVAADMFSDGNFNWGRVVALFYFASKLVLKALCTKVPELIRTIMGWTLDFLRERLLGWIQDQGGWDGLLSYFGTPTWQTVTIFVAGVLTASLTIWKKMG

Regarding “Ku70: human full length Ku70, 70 kDa subunit of Ku-complex (609 amino acids), expressed from pCMV-2B plasmid”, the “binding to Bax (co-immunoprecipitation)” value was “bound to Bax”.

The values are drawn from US20070036775A1, “Method of modulating or examining Ku70 levels in cells” (priority 2001, published 2007).
